pIC50, pKi: −log10 of the molar value. In brackets after ≈: the same amount, converted by molar mass. Activity calls are given as the source filed them. The rule behind the calls is not given here.
Assays:
[1] = target: T1, Estrogen receptor (Homo sapiens, UniProt P03372)
[2] = target: T1, Estrogen receptor; remark: listed apart in the source
[3] = target: T1, Estrogen receptor; remark: listed apart in the source
[4] = target: Estrogen receptor beta (Homo sapiens, UniProt Q92731)
[5] = target: T2, Urotensin-2 receptor (Homo sapiens, UniProt Q9UKP6)
T2 sequence (Q9UKP6 whole entry): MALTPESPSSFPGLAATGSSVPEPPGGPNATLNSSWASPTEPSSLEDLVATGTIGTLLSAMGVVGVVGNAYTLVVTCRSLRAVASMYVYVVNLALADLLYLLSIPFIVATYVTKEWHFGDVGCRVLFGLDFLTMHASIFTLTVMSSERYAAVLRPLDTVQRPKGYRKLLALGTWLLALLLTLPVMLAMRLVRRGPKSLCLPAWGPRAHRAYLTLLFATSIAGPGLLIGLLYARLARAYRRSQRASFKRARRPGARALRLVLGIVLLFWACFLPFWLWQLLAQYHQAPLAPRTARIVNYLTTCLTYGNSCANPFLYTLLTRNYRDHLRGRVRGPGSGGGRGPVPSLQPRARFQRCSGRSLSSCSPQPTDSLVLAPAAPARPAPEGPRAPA

Amino acid sequences for entries named in this document (tags omitted). A change or cut given only in a name is not applied to a line headed by its entry.
UniProt P03372, whole entry: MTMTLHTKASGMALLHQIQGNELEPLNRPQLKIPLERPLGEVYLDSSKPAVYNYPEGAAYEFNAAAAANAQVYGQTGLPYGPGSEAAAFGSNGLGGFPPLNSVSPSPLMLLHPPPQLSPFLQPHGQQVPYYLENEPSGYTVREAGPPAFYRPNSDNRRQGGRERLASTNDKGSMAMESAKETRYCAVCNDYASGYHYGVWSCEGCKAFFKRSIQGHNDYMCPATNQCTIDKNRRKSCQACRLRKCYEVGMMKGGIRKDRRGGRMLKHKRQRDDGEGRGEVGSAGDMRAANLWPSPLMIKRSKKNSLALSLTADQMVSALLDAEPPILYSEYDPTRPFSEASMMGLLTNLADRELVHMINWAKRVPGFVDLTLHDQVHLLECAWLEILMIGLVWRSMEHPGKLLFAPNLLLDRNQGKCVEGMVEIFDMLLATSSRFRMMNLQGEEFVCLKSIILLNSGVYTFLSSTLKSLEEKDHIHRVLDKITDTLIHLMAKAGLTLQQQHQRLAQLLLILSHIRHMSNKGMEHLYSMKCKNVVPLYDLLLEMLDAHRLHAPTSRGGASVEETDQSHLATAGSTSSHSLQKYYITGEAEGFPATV
UniProt Q92731, whole entry: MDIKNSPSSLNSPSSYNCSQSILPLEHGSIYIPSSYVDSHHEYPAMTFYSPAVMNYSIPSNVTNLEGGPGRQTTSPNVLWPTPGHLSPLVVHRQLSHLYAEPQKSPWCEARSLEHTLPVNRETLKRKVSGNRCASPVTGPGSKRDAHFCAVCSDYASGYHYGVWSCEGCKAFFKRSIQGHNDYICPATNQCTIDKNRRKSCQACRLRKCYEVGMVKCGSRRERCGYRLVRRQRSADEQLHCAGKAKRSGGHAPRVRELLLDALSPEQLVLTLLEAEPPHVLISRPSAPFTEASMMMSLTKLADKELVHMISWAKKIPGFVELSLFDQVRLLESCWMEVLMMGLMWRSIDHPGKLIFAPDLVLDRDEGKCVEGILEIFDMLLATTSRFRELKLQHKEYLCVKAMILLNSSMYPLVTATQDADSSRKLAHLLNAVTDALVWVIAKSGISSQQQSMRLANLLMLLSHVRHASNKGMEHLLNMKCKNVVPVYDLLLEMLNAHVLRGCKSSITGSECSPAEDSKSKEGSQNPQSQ
UniProt Q12809: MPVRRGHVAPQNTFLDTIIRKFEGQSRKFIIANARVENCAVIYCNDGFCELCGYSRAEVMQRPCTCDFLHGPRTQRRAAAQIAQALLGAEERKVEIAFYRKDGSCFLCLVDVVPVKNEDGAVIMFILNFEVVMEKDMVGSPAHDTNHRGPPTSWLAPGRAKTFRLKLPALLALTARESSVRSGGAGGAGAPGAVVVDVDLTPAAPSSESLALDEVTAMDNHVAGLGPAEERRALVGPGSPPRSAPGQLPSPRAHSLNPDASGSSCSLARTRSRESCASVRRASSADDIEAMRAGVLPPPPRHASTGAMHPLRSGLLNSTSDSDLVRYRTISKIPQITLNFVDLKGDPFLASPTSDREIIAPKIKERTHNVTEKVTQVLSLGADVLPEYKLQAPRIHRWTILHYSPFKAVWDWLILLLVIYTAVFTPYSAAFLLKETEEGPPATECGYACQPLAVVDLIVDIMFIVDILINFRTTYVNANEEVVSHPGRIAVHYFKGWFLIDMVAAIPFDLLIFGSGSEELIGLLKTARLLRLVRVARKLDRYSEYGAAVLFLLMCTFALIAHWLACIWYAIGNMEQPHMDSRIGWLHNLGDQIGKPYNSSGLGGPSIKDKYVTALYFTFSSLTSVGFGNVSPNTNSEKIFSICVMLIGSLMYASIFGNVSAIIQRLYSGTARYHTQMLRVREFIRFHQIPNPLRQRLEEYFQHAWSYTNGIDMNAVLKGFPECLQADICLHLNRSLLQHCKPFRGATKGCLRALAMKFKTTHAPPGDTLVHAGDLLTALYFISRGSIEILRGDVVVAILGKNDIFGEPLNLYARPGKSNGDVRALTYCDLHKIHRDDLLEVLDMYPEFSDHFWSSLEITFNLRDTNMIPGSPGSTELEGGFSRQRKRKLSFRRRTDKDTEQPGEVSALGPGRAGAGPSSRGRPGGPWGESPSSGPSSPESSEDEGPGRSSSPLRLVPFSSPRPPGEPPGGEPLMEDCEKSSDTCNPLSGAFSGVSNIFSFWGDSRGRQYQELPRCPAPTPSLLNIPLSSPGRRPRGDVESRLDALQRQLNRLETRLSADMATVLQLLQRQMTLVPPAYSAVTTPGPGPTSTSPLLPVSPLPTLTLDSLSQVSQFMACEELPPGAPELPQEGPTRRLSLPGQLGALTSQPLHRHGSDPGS

[6] = tested on: Breast carcinoma cell; conditions: Homo sapiens, dose 0.5 mg/kg, route po, time 28.0 day
[7] = tested on: MCF7; assay: cells; conditions: Homo sapiens, MCF7, 72 h, read-out: pIC50 (converted)
[8] = cells; conditions: Homo sapiens, MCF7, read-out: pIC50 (converted)
[9] = cells; conditions: Homo sapiens, MCF7, read-out: pIC50 (converted); remark: listed apart in the source
[10] = cells; conditions: Homo sapiens, MCF7, 24 h, read-out: pIC50 (converted)
[11] = tested on: MCF7; assay: cells; conditions: Homo sapiens, MCF7, 144 h, read-out: pIC50 (converted)
[12] = tested on: calcium channel, diltiazem site; assay: in vitro
[13] = tested on: Breast carcinoma cell; assay: animal or person; conditions: Mus musculus, po, 672 h, read-out: INH
[14] = tested on: Breast carcinoma cell; assay: animal or person; conditions: Mus musculus, po, 672 h, read-out: INH; remark: listed apart in the source
[15] = in vitro; conditions: rat, hepatocytes
[16] = physchem; conditions: buffer, pH 7.4
[17] = target: Voltage-gated inwardly rectifying potassium channel KCNH2 (Homo sapiens, UniProt Q12809)
[18] = in vitro; conditions: human, plasma
[19] = physchem; conditions: aqueous phosphate buffer, pH 7.4

Row | Structure (SMILES) | pIC50 [1] | hepatocyte CLint [15] [µL/min/1e6 cells] | also measured
1 | Cc1c(OCCNCCCF)ncc(F)c1[C@@H]1c2[nH]c3ccccc3c2C[C@@H](C)N1C[C@@H](C)C(=O)O | 8.80 | – | pIC50 [2]: 9.80; pIC50 [3]: 7.60; pIC50 [4]: 7.70; pKi [5]: 5.11; inhibition [6]: inactive; IC50 [7]: 6.31 nM; IC50 [8]: > 31600 nM; IC50 [9]: 1.26 nM; IC50 [10]: 15.8 nM; IC50 [11]: 39.8 nM; pKi [12]: 5.33; inhibition in vivo at 15 mg/kg [13]: 46%; inhibition in vivo at 50 mg/kg [14]: 96%
2 | C[C@@H]1Cc2c([nH]c3ccccc23)[C@@H](c2cccc(OCCNCCCF)c2F)N1CC(F)(F)F | 8.80 | 10 | –
3 | C[C@@H]1Cc2c([nH]c3ccccc23)[C@@H](c2cc(OCCNCCCF)ccc2F)N1CC(F)(F)F | 8.70 | – | –
4 | Cc1ccc(OCCNCCCF)c(F)c1[C@@H]1c2[nH]c3ccccc3c2C[C@@H](C)N1CC(F)(F)F | 8.80 | 5 | –
5 | COc1ccc(OCCNCCCF)cc1[C@@H]1c2[nH]c3ccccc3c2C[C@@H](C)N1CC(F)F | 8.70 | 21 | –
6 | Cc1c(OCCN(C)CCCF)ncc(F)c1[C@@H]1c2[nH]c3ccccc3c2C[C@@H](C)N1C[C@H](C)C(=O)O | 9.00 | – | –
7 | C[C@@H]1Cc2c([nH]c3ccccc23)[C@@H](c2c(F)ccc(OCCNCCCF)c2F)N1C[C@H](C)C(=O)O | 8.20 | < 1 | logD [16]: 0.4
8 | Cc1ccc([C@@H]2c3[nH]c4ccccc4c3C[C@@H](C)N2CC(F)(F)F)cc1OCCNCCCF | 6.60 | 26 | –
9 | C[C@@H]1Cc2c([nH]c3ccccc23)[C@@H](c2cc(F)cc(OCCNCCCF)c2)N1CC(F)(F)F | 8.10 | 12 | –
10 | COc1c(OCCNCCCF)cccc1[C@@H]1c2[nH]c3ccccc3c2C[C@@H](C)N1CC1(F)COC1 | – | 27 | logD [16]: 3
11 | Cc1c(OCCNCCCF)ccc(F)c1[C@@H]1c2[nH]c3ccccc3c2C[C@@H](C)N1CCC(=O)O | 7.80 | < 1 | pIC50 [17]: < 4.40; logD [16]: 0.3
12 | COc1ccc(OCCNCCCF)cc1[C@@H]1c2[nH]c3ccccc3c2C[C@@H](C)N1CC1(F)COC1 | 8.70 | 37 | –
13 | C[C@@H]1Cc2c([nH]c3ccccc23)[C@@H](c2cccc(OCCCN3CC(CF)C3)c2)N1CC1(F)COC1 | 7.50 | 68 | logD [16]: 3.2; fraction unbound [18]: 0.05
14 | Cc1ccc(OCCNCCCF)cc1[C@@H]1c2[nH]c3ccccc3c2C[C@@H](C)N1CC(F)(F)F | 8.40 | 23 | logD [16]: 4
15 | Cc1c(OCCN2CC(CF)C2)ccc(F)c1[C@@H]1c2[nH]c3ccccc3c2C[C@@H](C)N1C[C@H](C)C(=O)O | 8.60 | 2 | logD [16]: 0.9; fraction unbound [18]: 0.3
16 | C[C@@H]1Cc2c([nH]c3ccccc23)[C@@H](c2cccc(OCCNCCCF)c2)N1CC1(F)COC1 | 8.20 | 52 | logD [16]: 3
17 | C[C@@H]1Cc2c([nH]c3ccccc23)[C@@H](c2cccc(OCCCNCCCF)c2)N1CC1(F)COC1 | 7.90 | 18 | logD [16]: 2.4; fraction unbound [18]: 0.049
18 | Cc1c(OCCNCCCF)ncc(F)c1[C@@H]1c2[nH]c3ccccc3c2C[C@@H](C)N1C[C@H](C)C(=O)O | 8.90 | – | –
19 | C[C@@H]1Cc2c([nH]c3ccccc23)[C@@H](c2c(F)ccc(OCCNCCCF)c2F)N1CC(F)(F)CO | 9.20 | – | –

Row | Structure (SMILES) | pIC50 [1] | hepatocyte CLint [15] [µL/min/1e6 cells] | also measured
20 | COc1cc(OCCNCCCF)ccc1[C@@H]1c2[nH]c3ccccc3c2C[C@@H](C)N1CC(F)F | 8.80 | 5 | –
21 | Cc1c(OCCNCCCF)ccc(F)c1[C@@H]1c2[nH]c3ccccc3c2C[C@@H](C)N1C[C@@H](C)C(=O)O | 8.00 | – | –
22 | Cc1c(OCCNCCCF)ccc(F)c1[C@@H]1c2[nH]c3ccccc3c2C[C@@H](C)N1CC(F)(F)CO | – | 19 | –
23 | Cc1c(OCCNCCCF)cccc1[C@@H]1c2[nH]c3ccccc3c2C[C@@H](C)N1CC(F)(F)F | – | 10 | –
24 | Cc1c(OCCN(C)CCCF)ncc(F)c1[C@@H]1c2[nH]c3ccccc3c2C[C@@H](C)N1C[C@@H](C)C(=O)O | 8.80 | – | –
25 | C[C@@H]1Cc2c([nH]c3ccccc23)[C@@H](c2ccc(OCCNCCCF)cc2)N1CC1(F)COC1 | 8.30 | 7 | –
26 | C[C@@H]1Cc2c([nH]c3ccccc23)[C@@H](c2cccc(NCCNCCCF)c2)N1CC1(F)COC1 | 7.70 | 48 | –
27 | Cc1c(OCCNCCCF)ccc(F)c1[C@@H]1c2[nH]c3ccccc3c2C[C@@H](C)N1C[C@H](C)C(=O)O | 8.50 | – | –
28 | Cc1c(OCCN(C)CCCF)ccc(F)c1[C@@H]1c2[nH]c3ccccc3c2C[C@@H](C)N1C[C@H](C)C(=O)O | 8.70 | – | –
29 | COc1ccc(OCCNCCCF)cc1[C@@H]1c2[nH]c3ccccc3c2C[C@@H](C)N1CC(F)(F)CO | 8.90 | 41 | –
30 | Cc1c(OCCNCCCF)ccc(F)c1[C@@H]1c2[nH]c3ccccc3c2C[C@@H](C)N1CC(F)(F)F | 8.90 | 10 | –
31 | C[C@@H]1Cc2c([nH]c3ccccc23)[C@@H](c2c(F)cc(OCCN3CC(CF)C3)cc2F)N1CC(C)(C)F | – | – | logD [16]: > 4.4; solubility at 24 h [19]: < 3 µM
32 | C[C@@H]1Cc2c([nH]c3ccccc23)[C@@H](c2cccc(OCCNCCCF)c2)N1CC(F)(F)F | 8.80 | 18 | –
33 | COc1cc(OCCNCCCF)ccc1[C@@H]1c2[nH]c3ccccc3c2C[C@@H](C)N1CC(F)(F)CO | – | 12 | pIC50 [17]: 5.24
34 | C[C@@H]1Cc2c([nH]c3ccccc23)[C@@H](c2cccc(N(C)CCNCCCF)c2)N1CC1(F)COC1 | 6.70 | 210 | logD [16]: 3
35 | C[C@@H]1Cc2c([nH]c3ccccc23)[C@@H](c2ccc(F)c(OCCNCCCF)c2)N1CC(F)(F)F | 7.60 | 22 | –
36 | C[C@@H]1Cc2c([nH]c3ccccc23)[C@@H](c2c(F)cc(OCCN3CC(CF)C3)cc2F)N1CC1(F)COC1 | – | – | fraction unbound [18]: 0.031; solubility at 24 h [19]: 90 µM (≈ 46.6 µg/mL)
37 | COc1cc(OCCNCCCF)ccc1[C@@H]1c2[nH]c3ccccc3c2C[C@@H](C)N1CC1(F)COC1 | 8.80 | – | –
38 | Cc1cc(OCCNCCCF)cc([C@@H]2c3[nH]c4ccccc4c3C[C@@H](C)N2CC(F)(F)F)c1 | 8.30 | 17 | –

From ChEMBL document CHEMBL5380788, “Discovery of a Potent and Orally Bioavailable Zwitterionic Series of Selective Estrogen Receptor Degrader-Antagonists” (J Med Chem, 2023)
